# Laboratory results from US20120046329A1, “MODULATORS OF NOD1 AND NOD2 SIGNALING, METHODS OF IDENTIFYING MODULATORS OF NOD1 AND NOD2 SIGNALING, AND USES THEREOF” (Sanford-Burnham Medical Research Institute, priority 2010, published 2012).
# Target: T1, NOD1 (Homo sapiens, UniProt Q9Y239)
# T1 sequence (Q9Y239 1-953): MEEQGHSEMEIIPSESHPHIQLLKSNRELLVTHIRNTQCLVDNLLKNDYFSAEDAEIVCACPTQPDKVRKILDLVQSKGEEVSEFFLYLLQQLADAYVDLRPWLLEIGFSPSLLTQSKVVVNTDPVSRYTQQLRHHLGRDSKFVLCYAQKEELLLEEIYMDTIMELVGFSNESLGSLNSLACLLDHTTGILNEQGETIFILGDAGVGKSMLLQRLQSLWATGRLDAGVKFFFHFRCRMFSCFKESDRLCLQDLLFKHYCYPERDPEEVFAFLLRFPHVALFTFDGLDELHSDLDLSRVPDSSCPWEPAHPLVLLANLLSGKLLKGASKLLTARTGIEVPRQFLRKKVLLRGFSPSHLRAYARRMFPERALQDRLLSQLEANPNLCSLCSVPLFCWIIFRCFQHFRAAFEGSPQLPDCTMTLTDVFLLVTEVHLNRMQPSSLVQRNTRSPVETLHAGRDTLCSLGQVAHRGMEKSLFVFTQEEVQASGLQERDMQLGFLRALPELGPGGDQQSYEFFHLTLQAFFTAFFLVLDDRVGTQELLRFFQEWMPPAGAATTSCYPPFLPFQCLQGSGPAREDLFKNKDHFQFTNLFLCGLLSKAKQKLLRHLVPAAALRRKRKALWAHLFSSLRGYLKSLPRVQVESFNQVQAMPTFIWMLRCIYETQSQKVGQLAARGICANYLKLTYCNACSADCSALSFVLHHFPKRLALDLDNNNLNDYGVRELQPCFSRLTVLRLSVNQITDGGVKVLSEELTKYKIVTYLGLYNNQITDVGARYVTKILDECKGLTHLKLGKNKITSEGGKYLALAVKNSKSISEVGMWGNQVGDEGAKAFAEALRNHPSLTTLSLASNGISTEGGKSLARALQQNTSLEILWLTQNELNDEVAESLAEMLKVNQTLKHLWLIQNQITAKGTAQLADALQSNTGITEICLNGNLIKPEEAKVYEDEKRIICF
# Assay: NOD1 NF-κB luciferase reporter assay, γ-tri-DAP-stimulated HEK293T cells
# Details: read-out: (NOD1) IC50
compound,measurement,value
Cc1ccc(S(=O)(=O)n2c(N)nc3ccccc32)cc1 [Compound 1],IC50,560 ± 40 nM
